Results as given in ChEMBL document CHEMBL1144895, “Synthesis and anticonvulsant activity of novel bicyclic acidic amino acids” (J Med Chem, 2003).

Protein sequences, listed by entry. Tags and fused reporters are not part of them. Lines headed by an entry give the natural chain unless they say otherwise; changes in a name come on top.
UniProt P23385: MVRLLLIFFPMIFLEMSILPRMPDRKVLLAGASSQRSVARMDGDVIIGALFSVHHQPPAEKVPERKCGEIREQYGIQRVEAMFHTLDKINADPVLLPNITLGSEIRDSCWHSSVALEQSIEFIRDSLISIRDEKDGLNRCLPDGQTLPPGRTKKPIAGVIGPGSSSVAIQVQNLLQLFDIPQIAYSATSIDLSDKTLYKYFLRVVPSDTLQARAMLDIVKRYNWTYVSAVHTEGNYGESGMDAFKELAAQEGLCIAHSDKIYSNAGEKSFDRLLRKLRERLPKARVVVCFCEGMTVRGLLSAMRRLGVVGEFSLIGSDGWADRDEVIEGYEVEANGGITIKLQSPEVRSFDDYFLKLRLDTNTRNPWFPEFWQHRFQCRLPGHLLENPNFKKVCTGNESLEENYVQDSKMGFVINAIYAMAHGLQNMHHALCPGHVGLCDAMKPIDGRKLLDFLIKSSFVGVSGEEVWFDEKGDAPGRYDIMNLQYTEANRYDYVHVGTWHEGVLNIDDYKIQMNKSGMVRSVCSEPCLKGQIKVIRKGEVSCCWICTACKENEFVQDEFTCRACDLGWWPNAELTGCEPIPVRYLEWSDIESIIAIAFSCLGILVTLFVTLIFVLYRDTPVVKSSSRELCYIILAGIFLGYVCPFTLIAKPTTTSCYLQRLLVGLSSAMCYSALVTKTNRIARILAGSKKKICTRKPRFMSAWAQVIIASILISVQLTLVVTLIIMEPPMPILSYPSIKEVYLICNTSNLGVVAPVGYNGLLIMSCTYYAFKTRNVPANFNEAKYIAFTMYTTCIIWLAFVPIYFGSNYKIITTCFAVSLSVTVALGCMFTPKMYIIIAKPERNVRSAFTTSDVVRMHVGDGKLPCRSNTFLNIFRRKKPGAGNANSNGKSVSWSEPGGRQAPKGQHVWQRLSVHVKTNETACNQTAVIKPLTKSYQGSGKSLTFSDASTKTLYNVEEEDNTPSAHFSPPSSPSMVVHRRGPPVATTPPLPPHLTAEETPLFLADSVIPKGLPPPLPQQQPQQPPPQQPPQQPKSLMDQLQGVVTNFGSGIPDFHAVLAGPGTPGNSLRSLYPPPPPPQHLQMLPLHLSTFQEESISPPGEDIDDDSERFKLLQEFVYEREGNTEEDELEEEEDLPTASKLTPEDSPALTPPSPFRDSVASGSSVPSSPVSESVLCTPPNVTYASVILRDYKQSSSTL

Biological target: Metabotropic glutamate receptor 1 (Rattus norvegicus, UniProt P23385)
Test: Activity tested at cloned rat Metabotropic glutamate receptor 1 expressed in Chinese Hamster Ovary (CHO) cells
Assay type: functional, cell-based

For `N[C@@]1(C(=O)O)CC[C@@H](C(=O)O)C1` (racemic), the EC50 was 15 µM.
